This is one part of a sample in which hits are shown more often than they occur.
GIV Gai3 FP = GIV-Galpha-i interaction inhibition; P08753; Galpha-i3/FITC-GIV peptide fluorescence polarization, 90 min; active compounds read low; scaled: aluminum fluoride 0%, vehicle 100%; percent of control (FP), % (no concentration beside the values); 210,000 compounds, 0.42% hits; AID 1224905;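 active means replicate mean at 85% of control or lower, very high polarization wells dropped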;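 further: wells of about 15 µL received 100 nL stock; the first replicate is given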
HCMV NEC inh = cytomegalovirus nuclear egress complex inhibition; inhibition, % (no concentration beside the values); 190,000 tested, 0.15% active; HTRF UL50-UL53 interaction, normalized percent inhibition; AID 1918969; in the data active = inhibition above about 27%, passing the limit was not always enough
Of the large screens only hits and unclear results are named; the others gave an inactive call; ! = a repeat was not active.

CC(C)(C)C1(C)OC(=O)C(=Cc2ccc(C(=O)O)cc2)C(=O)O1 (stereo not given)	none
CCc1ccc2nc(Nc3nc4ccccc4c(=O)[nH]3)nc(C)c2c1	none (no result: HCMV NEC inh)
CCc1ccc2c(C)nc(NC3=NC(C)(C)C=C(C)N3)nc2c1	HCMV NEC inh 49 (no result: GIV Gai3 FP)
Cc1nc2ncnn2c(N2CCN(C(C)C)CC2)c1C	none (no result: HCMV NEC inh)
CCCCOc1ccccc1C(=O)Nc1ccc2c(c1)NC(=O)CO2	none
Cc1cc(NC(=O)CN2C(=O)CCC2=O)no1	none
CCn1c(O)c(/C=N/c2nc3ccccc3[nH]2)sc1=S	none (no result: GIV Gai3 FP)
CCn1c(O)c(C=Nc2cccc(O)c2)sc1=S	GIV Gai3 FP 66
O=C(O)CCCN1C(=O)/C(=C/c2c(N3CCN(Cc4ccccc4)CC3)nc3ccccn3c2=O)SC1=S	none
CC(C)CN1C(=O)/C(=C/c2c(N3CCN(CCO)CC3)nc3ccccn3c2=O)SC1=S	GIV Gai3 FP 41
COc1cccc(/C=C2/SC(=Nc3ccccc3Cl)NC2=O)c1	none
COc1cccc(C2=CC(c3ccccc3F)n3ncc(C(=O)Nc4ccc(F)cc4)c3N2)c1 (stereo not given)	GIV Gai3 FP -60 (no result: HCMV NEC inh)
COc1ccc(C2=CC(c3ccccc3F)n3ncc(C(=O)Nc4ccc(C)cc4)c3N2)cc1 (stereo not given)	none (no result: HCMV NEC inh)
COc1ccc(N(/C=C2\Sc3ccccc3C2=O)C(=O)c2ccco2)cc1	none
COc1ccc(N(C=O)/C=C2\Sc3ccccc3C2=O)cc1	GIV Gai3 FP -15
CCN(CC)c1ccc(C=Nc2c(C)n(C)n(-c3ccccc3)c2=O)cc1	none (no result: HCMV NEC inh)
CN1c2cc(Cl)ccc2-c2nc(SCC(=O)NC3CCCCC3)ncc2S1(=O)=O	HCMV NEC inh 67
CN1c2ccc(Cl)cc2-c2nc(SCC(=O)NC3CCCCC3)ncc2S1(=O)=O	none
CC1=C(C(=O)OCc2ccccc2)C2(O)C(=O)c3ccccc3C2(O)N1 (stereo not given)	HCMV NEC inh 66 (no result: GIV Gai3 FP)
CCOC(=O)C1=C(C)NC2(O)c3ccccc3C(=O)C12O (stereo not given)	none (no result: HCMV NEC inh)
CN(C)/C=C/C=C1\CC/C(=C\C=C\N(C)C)C1=O	none
CN(C)/C=C/C=C1\CCc2ccccc2C1=O	GIV Gai3 FP -73 (no result: HCMV NEC inh)
O=C(Cc1ccccc1)N1CCN(c2nc3ncccc3o2)CC1	none
N#C/C(=C\C=N\Nc1ccccc1)c1nn(-c2ccccc2)c(-n2cccc2)c1C#N	none
COc1cc(Nc2c(C(=O)N3CCCCC3)cnc3ccc(F)cc23)cc(OC)c1	none
CCN(CC)c1ccc2cc(C(=O)Nc3ccc(C)cc3)c(=N)oc2c1	none
CCN(CC)c1ccc2cc(C(=O)Nc3ccccc3)c(=N)oc2c1	GIV Gai3 FP 73 (no result: HCMV NEC inh)
CCN(CC)c1ccc2cc(-c3c(O)c4ccccc4[nH]c3=O)c(=O)oc2c1	none (no result: GIV Gai3 FP)
CCN(CC)c1ccc2cc(-c3nc4ccccc4c(=O)[nH]3)c(=N)oc2c1	GIV Gai3 FP 8.2
O=c1nc(SCc2ccccc2)c2c(n1C1CCCC1)CCC2	none
CCCS(=O)(=O)c1c(S(=O)(=O)CCC)c2ccccn2c1C(=O)N/N=C/c1ccccc1	none (no result: HCMV NEC inh)
O=C(O)CCC(=O)Nc1ccc2c(c1)oc1ccccc12	HCMV NEC inh 52
O=C(O)COCC(=O)Nc1ccc2c(c1)oc1ccccc12	none (no result: HCMV NEC inh)
C=CCn1c(C2CCCN2C(=O)CC)nc2ccccc21 (stereo not given)	none
C=CCOc1ccc(C2C(C#N)=C(N)OC(C)=C2C(=O)OCC)cc1 (stereo not given)	none (no result: HCMV NEC inh)
O=C1c2ccccc2-c2c(NCCc3ccccc3)c(=O)[nH]c3cccc1c23	GIV Gai3 FP -73 (no result: HCMV NEC inh)
CCCCNc1c2c3c(cccc3[nH]c1=O)C(=O)c1ccccc1-2	GIV Gai3 FP -48
O=C1c2ccccc2-c2c(Nc3ccccc3)c(=O)[nH]c3cccc1c23	none (no result: HCMV NEC inh)
Nc1c2c3c(c(Cl)ccc3[nH]c1=O)C(=O)c1ccccc1-2	none (no result: HCMV NEC inh)
CN(C(=O)C(O)(c1ccc(F)cc1)c1ccc(F)cc1)N(c1ccccc1)c1ccccc1	none (no result: HCMV NEC inh)
COc1ccc(-c2noc(-c3cnn4c(C)c(Cc5ccccc5C)c(C)nc34)n2)c(OC)c1	none
CCCCCCCCCC[N+](CC)(CC)CCOc1ccc2c(c1)C(=O)c1cc(OCC[N+](CC)(CC)CCCCCCCCCC)ccc1-2	none (no result: HCMV NEC inh)
Cc1ccc(C2=CC(c3ccc(Cl)cc3)n3nc(-c4ccc(C)cc4)nc3N2)cc1 (stereo not given)	none
O=C(Nc1nc2n(n1)C(c1ccc(F)cc1)C=C(c1ccccc1)N2)c1ccco1 (stereo not given)	none
COc1ccc(C(=O)Nc2nc3n(n2)C(c2ccc(Cl)cc2)C=C(c2ccccc2)N3)cc1OC (stereo not given)	GIV Gai3 FP 40
COc1ccc(C2C=C(c3ccccc3)Nc3nc(NC(=O)c4ccc(C)cc4)nn32)cc1 (stereo not given)	none
O=C(Nc1nc2n(n1)C(c1ccc(Cl)cc1)C=C(c1ccccc1)N2)c1ccco1 (stereo not given)	GIV Gai3 FP -44
COc1ccc(C2C=C(c3ccc(Cl)cc3)Nc3nc(-c4ccc(Cl)cc4)nn32)cc1 (stereo not given)	GIV Gai3 FP -8.2!
CN(CCc1noc(-c2cc3cc(Cl)ccc3[nH]2)n1)C(=O)c1cccn1C	none (no result: HCMV NEC inh)
OC1(C(F)(F)F)CC(/C=C/c2ccccc2)=NO1 (stereo not given)	none (no result: HCMV NEC inh)
COc1cc(C=C2C(=O)NC(=O)NC2=O)cc(Cl)c1OCc1ccccc1Cl	none
C=CCc1cc(C=C2C(=O)NC(=O)NC2=O)cc(OC)c1OC	HCMV NEC inh 60
COc1cc(C=C2C(=O)NC(=O)NC2=O)ccc1OC(=O)c1ccc(Cl)cc1	none
CCC(=O)Oc1ccc(C=C2C(=O)NC(=O)NC2=O)cc1OC	HCMV NEC inh 56
Fc1ccc(Cn2c3ccccc3c3nc4ccccc4nc32)cc1	none (no result: HCMV NEC inh)
COc1cc(/C=C2/OC(=S)N(C)C2=O)ccc1O	GIV Gai3 FP -73
COc1ccc(/C=C2\OC(=S)N(C)C2=O)cc1	none (no result: HCMV NEC inh)
Oc1ccc2ccccc2c1C=Nc1c(F)c(F)c(F)c(F)c1F	none (no result: GIV Gai3 FP)
Oc1ccc2ccccc2c1/C=N/c1nccs1	HCMV NEC inh 108
COc1ccc(-c2cc(C(=O)Nc3ccc4c(c3)C(=O)N(C)C3=NCCN34)c3ccccc3n2)cc1	none
N#CC1=C(N)C(C#N)(C#N)C(c2ccco2)C2CN(Cc3ccccc3)CC=C12 (stereo not given)	GIV Gai3 FP -43
N#CC1=C(N)C(C#N)(C#N)C(c2ccccc2Cl)C2CN(Cc3ccccc3)CC=C12 (stereo not given)	none (no result: HCMV NEC inh)
COc1ccc(C2N(c3ccc(Cl)cc3)CCN2c2ccc(Cl)cc2)cc1Br	none (no result: HCMV NEC inh)
COC(=O)c1ccc2c(=O)n(Cc3ccc(OC)cc3)c(N3CCSC3)nc2c1	none (no result: HCMV NEC inh)
COc1ccccc1NC(=O)N1CCCn2nc(C)cc21	none
COCC(C)NC(=O)c1cccs1 (stereo not given)	none (no result: GIV Gai3 FP)
CC(=O)N1CCc2c(sc(NC(=O)c3ccc(C#N)cc3)c2C#N)C1	none (no result: GIV Gai3 FP)
CCCN1CCc2c(sc(NC(=S)NC(=O)c3ccccc3)c2C#N)C1	GIV Gai3 FP -59 (no result: HCMV NEC inh)
CC1CCN(C(=O)COC(=O)/C=C/c2ccccc2Cl)CC1	none (no result: GIV Gai3 FP)
COc1cccc(-c2noc(CSc3nc4cc(-c5ccccc5)sc4c(=O)n3C)n2)c1	none (no result: HCMV NEC inh)
CCOC(=O)C1=C(C)NC2=C(C(=O)CCC2)C1c1ccccc1 (stereo not given)	none
CCOC(=O)C1(C#N)C(=O)C(C#N)=C2CCCCC2C1c1ccccc1 (stereo not given)	GIV Gai3 FP -31
CCC(=O)C1=C(c2ccc(Br)cc2)N(C(=O)CC)n2c(CC)nnc2S1	none (no result: HCMV NEC inh)
CCCC(=O)Nc1c(C)nc(Nc2ccc(OC)cc2)nc1Nc1ccc(OC)cc1	none
